Source: patent US20240124450A1, “Novel SIK Inhibitors” (Pfizer Inc., priority 2022, published 2024)

Amino acid sequences for entries named in this document (tags omitted).
UniProt Q9Y2K2, whole entry: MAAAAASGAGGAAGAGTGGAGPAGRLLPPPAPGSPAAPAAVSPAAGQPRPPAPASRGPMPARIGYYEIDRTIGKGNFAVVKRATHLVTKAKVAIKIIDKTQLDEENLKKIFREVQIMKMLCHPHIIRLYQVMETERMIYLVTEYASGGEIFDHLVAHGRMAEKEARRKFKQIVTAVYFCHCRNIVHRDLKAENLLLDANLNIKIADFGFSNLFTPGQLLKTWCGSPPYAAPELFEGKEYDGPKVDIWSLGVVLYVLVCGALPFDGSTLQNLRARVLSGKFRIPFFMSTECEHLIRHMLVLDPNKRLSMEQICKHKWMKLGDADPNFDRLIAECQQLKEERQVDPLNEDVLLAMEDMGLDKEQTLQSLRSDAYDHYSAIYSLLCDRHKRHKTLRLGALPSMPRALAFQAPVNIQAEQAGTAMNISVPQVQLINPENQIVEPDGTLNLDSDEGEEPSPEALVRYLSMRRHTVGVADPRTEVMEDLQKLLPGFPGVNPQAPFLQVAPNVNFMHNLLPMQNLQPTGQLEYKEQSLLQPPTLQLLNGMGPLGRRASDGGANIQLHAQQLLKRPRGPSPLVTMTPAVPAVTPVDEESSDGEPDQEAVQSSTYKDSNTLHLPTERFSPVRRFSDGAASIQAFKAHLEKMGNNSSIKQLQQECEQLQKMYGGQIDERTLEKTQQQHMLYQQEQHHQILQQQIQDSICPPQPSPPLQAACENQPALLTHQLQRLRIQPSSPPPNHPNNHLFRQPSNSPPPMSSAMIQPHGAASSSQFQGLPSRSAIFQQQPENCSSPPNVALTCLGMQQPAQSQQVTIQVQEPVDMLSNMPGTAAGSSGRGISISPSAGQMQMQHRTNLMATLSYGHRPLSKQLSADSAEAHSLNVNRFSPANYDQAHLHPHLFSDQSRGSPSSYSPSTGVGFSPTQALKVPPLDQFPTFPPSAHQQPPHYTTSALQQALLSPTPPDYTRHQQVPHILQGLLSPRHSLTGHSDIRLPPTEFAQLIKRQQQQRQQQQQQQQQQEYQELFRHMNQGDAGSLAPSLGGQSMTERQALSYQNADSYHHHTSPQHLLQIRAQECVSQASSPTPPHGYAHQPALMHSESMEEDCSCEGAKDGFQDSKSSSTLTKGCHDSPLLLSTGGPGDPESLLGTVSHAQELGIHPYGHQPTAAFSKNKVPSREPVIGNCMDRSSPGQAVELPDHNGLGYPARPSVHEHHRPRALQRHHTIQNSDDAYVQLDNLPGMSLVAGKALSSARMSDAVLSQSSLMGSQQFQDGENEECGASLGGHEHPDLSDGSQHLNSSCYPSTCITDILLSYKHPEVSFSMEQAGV
UniProt P57059, whole entry: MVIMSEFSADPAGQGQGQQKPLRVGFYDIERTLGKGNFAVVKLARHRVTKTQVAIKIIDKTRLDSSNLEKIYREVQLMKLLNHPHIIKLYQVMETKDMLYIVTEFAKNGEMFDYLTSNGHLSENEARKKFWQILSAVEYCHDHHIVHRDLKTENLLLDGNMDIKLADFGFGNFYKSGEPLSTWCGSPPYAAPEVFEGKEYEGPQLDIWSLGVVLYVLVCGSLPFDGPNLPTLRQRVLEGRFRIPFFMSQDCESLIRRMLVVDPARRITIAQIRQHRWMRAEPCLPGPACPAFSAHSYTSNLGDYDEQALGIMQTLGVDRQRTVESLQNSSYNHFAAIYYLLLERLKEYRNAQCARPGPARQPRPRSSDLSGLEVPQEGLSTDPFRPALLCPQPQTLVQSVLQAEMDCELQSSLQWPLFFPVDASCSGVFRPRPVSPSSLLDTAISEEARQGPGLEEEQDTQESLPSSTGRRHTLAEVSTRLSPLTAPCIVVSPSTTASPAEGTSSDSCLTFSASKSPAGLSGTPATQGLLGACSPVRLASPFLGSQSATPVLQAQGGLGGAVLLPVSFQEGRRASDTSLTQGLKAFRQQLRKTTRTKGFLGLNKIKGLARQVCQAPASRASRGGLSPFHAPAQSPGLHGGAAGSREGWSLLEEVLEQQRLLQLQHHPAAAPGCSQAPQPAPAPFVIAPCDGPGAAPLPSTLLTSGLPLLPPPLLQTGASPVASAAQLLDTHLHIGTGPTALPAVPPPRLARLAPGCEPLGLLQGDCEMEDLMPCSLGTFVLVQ
UniProt Q9H0K1, whole entry: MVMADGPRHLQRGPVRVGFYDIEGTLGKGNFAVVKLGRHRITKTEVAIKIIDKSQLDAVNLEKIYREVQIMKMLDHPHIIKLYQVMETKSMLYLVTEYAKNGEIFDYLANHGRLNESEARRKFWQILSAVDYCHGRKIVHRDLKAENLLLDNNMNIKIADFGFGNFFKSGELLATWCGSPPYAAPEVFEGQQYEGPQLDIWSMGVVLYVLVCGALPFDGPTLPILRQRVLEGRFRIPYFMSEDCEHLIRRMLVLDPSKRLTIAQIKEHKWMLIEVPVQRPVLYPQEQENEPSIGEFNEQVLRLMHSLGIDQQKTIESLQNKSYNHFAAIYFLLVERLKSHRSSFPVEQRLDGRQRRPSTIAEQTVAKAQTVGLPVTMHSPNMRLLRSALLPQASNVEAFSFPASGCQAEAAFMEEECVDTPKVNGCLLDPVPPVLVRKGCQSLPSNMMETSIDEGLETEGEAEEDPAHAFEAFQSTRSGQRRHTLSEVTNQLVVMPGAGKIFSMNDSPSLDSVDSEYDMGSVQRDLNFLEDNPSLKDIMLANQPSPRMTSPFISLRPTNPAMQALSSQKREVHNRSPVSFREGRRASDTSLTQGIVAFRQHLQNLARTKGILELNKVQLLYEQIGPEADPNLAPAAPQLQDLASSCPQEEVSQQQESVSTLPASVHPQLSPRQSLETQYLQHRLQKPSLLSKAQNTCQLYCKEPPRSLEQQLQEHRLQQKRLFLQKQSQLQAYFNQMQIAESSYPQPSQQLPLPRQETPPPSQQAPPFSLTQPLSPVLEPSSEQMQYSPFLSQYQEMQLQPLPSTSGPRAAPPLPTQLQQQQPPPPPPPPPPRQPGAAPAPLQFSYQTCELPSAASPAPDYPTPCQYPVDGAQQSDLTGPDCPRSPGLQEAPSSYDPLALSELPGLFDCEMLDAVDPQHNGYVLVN

Tests used:
[1] = tested on: TNFα release from human monocyte derived macrophages stimulated with LPS; test: SIK macrophage cytokine assay, inhibition of TNFα release; format: cell-based; conditions: read-out: TNFa IC50, 1 ng/mL LPS, 4 hours, HTRF
[2] = tested on: IL10 release from human monocyte derived macrophages stimulated with LPS; test: SIK macrophage cytokine assay, increase of IL10 release; format: cell-based; conditions: read-out: IL10 EC50, 1 ng/mL LPS, 4 hours, HTRF
[3] = target: SIK3 (Homo sapiens (Human), UniProt Q9Y2K2); test: Pan SIK MS IC50 enzyme assay (SIK3); format: biochemical; conditions: read-out: SIK3 IC50 IC50; 1 mM ATP, substrate peptide AQT0508, LCMS/MS detection
[4] = target: SIK1 (Homo sapiens (Human), UniProt P57059); test: Pan SIK MS IC50 enzyme assay (SIK1); conditions: read-out: SIK1 IC50 IC50; 1 mM ATP, substrate peptide AQT0868, LCMS/MS detection
[5] = target: SIK2 (Homo sapiens (Human), UniProt Q9H0K1); test: Pan SIK MS IC50 enzyme assay (SIK2); format: biochemical; conditions: read-out: SIK2 IC50 IC50; 1 mM ATP, substrate peptide AQT0252, LCMS/MS detection

SMILES | IC50 [1] | EC50 [2] | IC50 [3] | IC50 [4] | IC50 [5]
CC[C@@H]1CCC[C@@](N)(COc2cc(-c3cnc4cccc(OC)n34)cc(OC)c2C#N)C1 (single isomer, unassigned) | 118 nM | 221 nM |  |  | 
CC[C@@H]1CCC[C@@]1(N)COc1cc(-c2cnc3cccc(C#N)n23)cc(SC)c1C#N (single isomer, unassigned) | 22.7 nM | 66 nM |  |  | 
CC[C@@H]1CCC[C@@]1(N)COc1cc(-c2cnc3cccc(OC)n23)cc(OC)c1C#N (single isomer, unassigned) | 15.1 nM | 64 nM |  |  | 
CC[C@@H]1CCC[C@@]1(N)COc1cc(-c2cnc3cccc(OC)n23)cc(SC)c1C#N (single isomer, unassigned) | 67.3 nM | 88 nM |  |  | 
CC[C@@H]1CCC[C@](N)(COc2cc(-c3cnc4cccc(C#N)n34)cc(SC)c2C#N)C1 (single isomer, unassigned) | 0.5 nM | 2 nM |  |  | 
CC[C@@H]1CC[C@@](N)(COc2cc(-c3cnc4cccc(OC)n34)cc(OC)c2C#N)C1 (single isomer, unassigned) | 160 nM | 328 nM |  |  | 
CC[C@@H]1CC[C@](N)(COc2cc(-c3cnc4cccc(OC)n34)cc(OC)c2C#N)C1 (single isomer, unassigned) | 12.2 nM | 30 nM |  |  | 
CC[C@@H]1OCC[C@@]1(N)COc1cc(-c2cnc3cccc(OC)n23)cc(SC)c1C#N (single isomer, unassigned) | 3.6 nM | 19 nM |  |  | 
CC[C@@H]1OCC[C@]1(N)COc1cc(-c2cnc3cccc(OC)n23)cc(SC)c1C#N (single isomer, unassigned) | 559 nM | 1470 nM |  |  | 
CC[C@H]1CCC[C@@](N)(COc2cc(-c3cnc4cccc(C#N)n34)cc(SC)c2C#N)C1 (single isomer, unassigned) | 18.7 nM | 49 nM |  |  | 
CC[C@H]1CCC[C@@]1(N)COc1cc(-c2cnc3cccc(OC)n23)cc(OC)c1C#N (single isomer, unassigned) | 707 nM | 1210 nM |  |  | 
CC[C@H]1CCC[C@@]1(N)COc1cc(-c2cnc3cccc(OC)n23)cc(SC)c1C#N (single isomer, unassigned) | 1.7 nM | 9 nM |  |  | 
CC[C@H]1CCC[C@](N)(COc2cc(-c3cnc4cccc(OC)n34)cc(OC)c2C#N)C1 (single isomer, unassigned) | 2.5 nM | 12 nM |  |  | 
CC[C@H]1CCC[C@]1(N)COc1cc(-c2cnc3cccc(C#N)n23)cc(SC)c1C#N (single isomer, unassigned) | 0.5 nM | 2 nM |  |  | 
CC[C@H]1CC[C@@](N)(COc2cc(-c3cnc4cccc(OC)n34)cc(OC)c2C#N)C1 (single isomer, unassigned) | 225 nM | 387 nM |  |  | 
CC[C@H]1CC[C@](N)(COc2cc(-c3cnc4cccc(OC)n34)cc(OC)c2C#N)C1 (single isomer, unassigned) | 54.6 nM | 118 nM |  |  | 
CC[C@H]1OCC[C@@]1(N)COc1cc(-c2cnc3cccc(OC)n23)cc(SC)c1C#N (single isomer, unassigned) | 6.3 nM | 39 nM |  |  | 
CC[C@H]1OCC[C@]1(N)COc1cc(-c2cnc3cccc(OC)n23)cc(SC)c1C#N (single isomer, unassigned) | 346 nM | 715 nM |  |  | 
COc1cc(-c2cnc3cccc(OC)n23)cc(OCC2(N)CCCN(CC(F)(F)F)C2)c1C#N (single isomer, unassigned) | 102 nM | 257 nM | 13.7 nM | 5.2 nM | 6.2 nM
COc1cc(-c2cnc3cccc(OC)n23)cc(OC[C@@]2(N)CCC[C@@H]2CC2CC2)c1C#N (single isomer, unassigned) | 287 nM | 598 nM |  |  | 

SMILES | IC50 [1] | EC50 [2] | IC50 [3] | IC50 [4] | IC50 [5]
COc1cc(-c2cnc3cccc(OC)n23)cc(OC[C@@]2(N)CCC[C@H]2CC2CC2)c1C#N (single isomer, unassigned) | 4.9 nM | 21 nM |  |  | 
COc1cc(-c2cnc3cccc(OC)n23)cc(OC[C@]2(N)CCC[C@@H]2CC2CC2)c1C#N (single isomer, unassigned) | 11.4 nM | 34 nM |  |  | 
COc1cc(-c2cnc3cccc(OC)n23)cc(OC[C@]2(N)CCC[C@H]2CC2CC2)c1C#N (single isomer, unassigned) | 535 nM | 966 nM |  |  | 
COc1cccc2ncc(-c3cc(OCC4(N)CCC(F)(F)C4)c(C#N)c(SC)c3)n12 (single isomer, unassigned) [13A] | 171 nM | 332 nM |  |  | 
COc1cccc2ncc(-c3cc(OCC4(N)CCC(F)(F)C4)c(C#N)c(SC)c3)n12 (single isomer, unassigned) [13B] | 24.4 nM | 54 nM |  |  | 
CSc1cc(-c2cnc3cccc(C#N)n23)cc(OCC2(N)CCCC(C)(C)C2)c1C#N (single isomer, unassigned) [15A] | 36.5 nM | 68 nM |  |  | 
CSc1cc(-c2cnc3cccc(C#N)n23)cc(OCC2(N)CCCC(C)(C)C2)c1C#N (single isomer, unassigned) [15B] | 4.4 nM | 18 nM |  |  | 
COc1cc(-c2cnc3cccc(OC)n23)cc(OCC2(N)CCCC23CCCC3)c1C#N (single isomer, unassigned) [20A] | 865 nM | 825 nM |  |  | 
COc1cc(-c2cnc3cccc(OC)n23)cc(OCC2(N)CCCC23CCCC3)c1C#N (single isomer, unassigned) [20B] | 13.8 nM | 33 nM |  |  | 
CSc1cc(-c2cnc3ccccn23)cc(OCC2(N)CCSC2)c1C#N (single isomer, unassigned) [23A] | 128 nM | 799 nM |  |  | 
CSc1cc(-c2cnc3ccccn23)cc(OCC2(N)CCSC2)c1C#N (single isomer, unassigned) [23B] | 19.8 nM | 89 nM |  |  | 
COc1cccc2ncc(-c3cc(OCC4(N)CCOC4)c(C#N)c(SC)c3)n12 (single isomer, unassigned) [24A] | 28.9 nM | 135 nM |  |  | 
COc1cccc2ncc(-c3cc(OCC4(N)CCOC4)c(C#N)c(SC)c3)n12 (single isomer, unassigned) [24B] | 193 nM | 609 nM |  |  | 
CSc1cc(-c2cnc3ccccn23)cc(OCC2(N)CCC(F)(F)C2)c1C#N (single isomer, unassigned) [26A] | 20 nM | 66 nM |  |  | 
CSc1cc(-c2cnc3ccccn23)cc(OCC2(N)CCC(F)(F)C2)c1C#N (single isomer, unassigned) [26B] | 369 nM | 692 nM |  |  | 
CSc1cc(-c2cnc3cccc(C#N)n23)cc(OCC2(N)CCSC2)c1C#N (single isomer, unassigned) [28A] | 22.7 nM | 14 nM |  |  | 
CSc1cc(-c2cnc3cccc(C#N)n23)cc(OCC2(N)CCSC2)c1C#N (single isomer, unassigned) [28B] | 32.5 nM | 208 nM |  |  | 
COc1cccc2ncc(-c3cc(OCC4(N)CCSC4)c(C#N)c(SC)c3)n12 (single isomer, unassigned) [30A] | 122 nM | 484 nM | 35.2 nM | 7.8 nM | 9.6 nM
COc1cccc2ncc(-c3cc(OCC4(N)CCSC4)c(C#N)c(SC)c3)n12 (single isomer, unassigned) [30B] | 23.7 nM | 78 nM | 5.2 nM | 1.2 nM | 2.2 nM
